{"source": "patent US7390500B2", "key": {"[1]": {"experiment": "Saturation solubility of fentanyl in microreservoir liquids"}, "[2]": {"experiment": "Solubility studies of the active substance in amine-resistant polysiloxane polymers", "conditions": "hydrophobic polymers, amine-resistant polysiloxanes"}}, "note": "Only a part of the results on these compounds is given; other tests are left out."}
{"compound": "CCC(=O)N(c1ccccc1)C1CCN(CCc2ccccc2)CC1", "values": [{"measurement": "Saturation solubility of fentanyl", "setting": "[1]; in 1,3-Butanediol", "value": 10, "unit": "% w/w"}, {"measurement": "Saturation solubility of fentanyl", "setting": "[1]; in Diethylene glycol diethyl ether", "value": 26, "unit": "% w/w"}, {"measurement": "Saturation solubility of fentanyl", "setting": "[1]; in Dipropylene glycol", "value": 18, "unit": "% w/w"}, {"measurement": "Saturation solubility of fentanyl", "setting": "[1]; in N-Methylpyrrolidone", "value": 26, "unit": "% w/w"}, {"measurement": "Saturation solubility of fentanyl", "setting": "[1]; in Transcutol (Diethylene glycol monoethyl ether)", "value": 25, "unit": "% w/w"}, {"measurement": "solubility in polymers", "setting": "[2]", "value": "less than 0.5 % by weight"}]}
